Literature values in article PMC4885489, “Prediction of Drug-Drug Interactions Arising from CYP3A induction Using a Physiologically Based Dynamic Model” (Drug Metabolism and Disposition, 2016).
Like-named read-outs stand apart in the source and are kept apart here.

Experiments:
rCYP3A5 = conditions: cited from earlier work
[1] = ref (Drusano et al., 1986a); cited from earlier work

Structure (SMILES)	rCYP3A5 Vmax (rCYP3A5) [µL/min/pmol]	rCYP3A5 Vmax (rCYP3A5; second pathway, printed 'oxylation', corrected for fumic & ISEF, ref Meta-analysis (Hirota et al., 2001), (Galetin et al., 2004) (Williams et al., 2002)) [µL/min/pmol]	ka [1] [h⁻¹]
Cc1nnc2n1-c1ccc(Cl)cc1C(c1ccccc1)=NC2 [Alprazolam, alprazolam]	5.99	2.29	–
CO[C@H]1/C=C/O[C@@]2(C)Oc3c(C)c(O)c4c(O)c(c(/C=N/N5CCN(C)CC5)c(O)c4c3C2=O)NC(=O)/C(C)=C\C=C\[C@H](C)[C@H](O)[C@@H](C)[C@@H](O)[C@@H](C)[C@H](OC(C)=O)[C@@H]1C [Rifampicin, rifampicin]	–	–	0.51
